Results taken from paper PMC5679609 (PLoS ONE, 2017).

Biological target: RhoGDI1 (GDP-dissociation inhibitor 1) (human (endogenous in MCF-7)) (UniProt P52565)
Assay: co-IP; anti-RhoGDI1 antibody, lysates of the MCF-7 lines expressing the SDC4 constructs; Mg2+-lysis buffer; blot for GFP::SDC4, Rac1 or RhoA

increase of co-precipitated Rac1 in Ser179Glu SDC4 cells against the other cell lines: 50%
Substance: Rac1 (from UniProt P63000 1-192) (natural protein; other documents disagree on this pair)
